Data: PubChem BioAssay AID624416 (The Scripps Research Institute Molecular Screening Center, 2012)
This is a selection; strong and weak results do not stand in their true shares. Some of these compounds have results that are not shown, active ones among them. The source made the active and inactive calls. No stated cut-off is given here; in the data, active means inhibition above about 8.5%; inactive means the rest.

What follows are compounds tested on HIV-1 gp120 / PG9 antibody interaction (assay: binders of HIV-1 gp120 antibody PG9, primary screen, biochemical, TR-FRET (AID 624416)). Conditions: TR-FRET gp120-PG9 antibody binding; at 6.7 µM; stronger effect = higher value.

Row | Structure (SMILES) | inhibition
1 | CN(C)c1ccc(C(=O)NCC2(N(C)C)CCCCC2)cc1 | inactive: -1.67%
2 | CN(C)C1CCCC1OC(=O)C(O)(c1ccccc1)c1ccccc1 (stereo unspecified) | inactive: 0.02%
3 | Cc1ccccc1C(=O)NCC1(N2CCCCC2)CCCCC1 | inactive: -1.29%
4 | COc1ccc(C(=O)NCC2(N(C)C)CCCCC2)cc1 | inactive: -1.62%
5 | O=C(NCC1(N2CCCCC2)CCCCC1)c1cccc(Br)c1 | inactive: -2.91%
6 | CCN1CCCC(OC(=O)C2(O)c3ccccc3C=Cc3ccccc32)C1 (stereo unspecified) | inactive: 1.68%
7 | Cc1cc(C(=O)NCC2(N3CCCCC3)CCCCC2)ccc1[N+](=O)[O-] | inactive: -3.04%
8 | O=C(NCC1(N2CCCCC2)CCCCC1)c1cc(F)c(F)cc1Cl | inactive: -0.36%
9 | C=CCN1CCN(CCOC(=O)C(O)(c2ccccc2)c2ccccc2)CC1 | inactive: -0.49%
10 | CN1[C@@H]2CC[C@H]1CC(OC(=O)C(O)(c1ccccc1)c1ccccc1)C2 (stereo partly specified) | inactive: -0.57%
11 | O=C(NCC1(N2CCCCC2)CCCCC1)c1cc([N+](=O)[O-])ccc1Cl | inactive: -1.53%
12 | Cc1ccc(C(=O)NCC2(N3CCCCC3)CCCCC2)cc1 | inactive: -0.92%
13 | COc1cc(SC)ccc1C(=O)NCC1(N(C)C)CCCCC1 | inactive: 0.08%
14 | CCN(CC)CC(C)C(C)OC(=O)C(O)(c1ccccc1)c1ccccc1 (stereo unspecified) | inactive: 0.13%
15 | CC(C)N1C(=O)CC2(CCN(CCOC(=O)C(O)(c3ccccc3)c3ccccc3)CC2)C1=O | inactive: -0.08%
16 | O=C(OC1CN2CCC1CC2)C(CO)(c1ccccc1)c1ccccc1 (stereo unspecified) | inactive: -0.3%
17 | O=C(OCCN1CCCC1)C(O)(c1ccccc1)c1ccccc1 | inactive: -0.26%
18 | CC(C)Oc1ccc(C(=O)NCC2(N(C)C)CCCCC2)cc1 | inactive: -2.23%
19 | CN(C)c1cccc(C(=O)NCC2(N(C)C)CCCCC2)c1 | inactive: -3.96%
20 | C=C(C)C#CC(O)(C(=O)OC1CCN(C)CC1)c1ccccc1 (stereo unspecified) | inactive: 0.81%
21 | COc1ccc(Br)c(C(=O)NCC2(N3CCCCC3)CCCCC2)c1 | inactive: -0.78%
22 | COc1cc(C(=O)NCC2(N(C)C)CCCCC2)c([N+](=O)[O-])cc1OC | inactive: 0.47%
23 | CN(C)C1(CNC(=O)c2ccc(Br)cc2)CCCCC1 | inactive: -1.31%
24 | O=C(NCC1(N2CCCCC2)CCCCC1)c1cccc(Cl)c1 | inactive: 0.93%
25 | COc1ccc(Cl)cc1C(=O)NCC1(N(C)C)CCCCC1 | inactive: -1.3%
26 | COc1cccc(C(=O)NCC2(N3CCCCC3)CCCCC2)c1 | inactive: -0.6%
